Consider one molecule from paper PMC4956724, “Assessing the reliability of uptake and elimination kinetics modelling approaches for estimating bioconcentration factors in the freshwater invertebrate, Gammarus pulex” (The Science of the Total Environment, 2016).

The test system of data set [1] is G. pulex. Conditions: ref Ashauer et al. (2010); cited from earlier work.
Data set [2] deals with G. pulex. In words: Re-examination of raw toxicokinetic data from Ashauer et al. (2010) using the OECD 305 modelling approach. Conditions: 2010 re-modelled.

As to `Cc1cc([N+](=O)[O-])cc([N+](=O)[O-])c1O`, the BAF in the data set with G. pulex [1] is recorded as 37. In the data set with G. pulex [2] (sequential method), the “BCF, Sequential BCF” value was determined as 51 L kg^− 1; the “k1, Sequential BCF” value came out at 37 L kg^− 1 day^− 1; the “k2, Sequential BCF” value was 0.729 day^− 1. In the data set on G. pulex [2] (simultaneous method), the “BCF, Simultaneous BCF” value amounted to 34 L kg^− 1; the “k1, Simultaneous BCF” value is reported as 39 L kg^− 1 day^− 1; the “k2, Simultaneous BCF” value worked out at 1.146 day^− 1.
